Data: PubChem BioAssay AID504357 (The Scripps Research Institute Molecular Screening Center, 2011)
The list shows a part of the results, in another mix than the full data. Some results for these compounds are left out of this collection, so the calls shown say nothing about other tests. The source made the active and inactive calls. No stated cut-off is given here; in the data, active means inhibition above about 22% (passing the limit was not always enough); inactive means the rest.

Protein sequences, listed by entry. Tags and fused reporters are not part of them.
UniProt P35372, whole entry, looked up: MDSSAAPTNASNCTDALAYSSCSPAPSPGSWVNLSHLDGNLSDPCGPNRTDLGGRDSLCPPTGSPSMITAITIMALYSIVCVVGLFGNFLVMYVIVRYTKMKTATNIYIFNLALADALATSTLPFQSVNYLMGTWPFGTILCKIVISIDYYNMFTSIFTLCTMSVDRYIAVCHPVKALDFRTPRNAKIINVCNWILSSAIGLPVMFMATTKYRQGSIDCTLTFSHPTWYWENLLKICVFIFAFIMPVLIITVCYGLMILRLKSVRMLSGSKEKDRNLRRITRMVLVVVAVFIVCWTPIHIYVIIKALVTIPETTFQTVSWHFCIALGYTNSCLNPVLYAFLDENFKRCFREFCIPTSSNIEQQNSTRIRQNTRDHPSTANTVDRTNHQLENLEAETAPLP
UniProt P41143, whole entry, looked up: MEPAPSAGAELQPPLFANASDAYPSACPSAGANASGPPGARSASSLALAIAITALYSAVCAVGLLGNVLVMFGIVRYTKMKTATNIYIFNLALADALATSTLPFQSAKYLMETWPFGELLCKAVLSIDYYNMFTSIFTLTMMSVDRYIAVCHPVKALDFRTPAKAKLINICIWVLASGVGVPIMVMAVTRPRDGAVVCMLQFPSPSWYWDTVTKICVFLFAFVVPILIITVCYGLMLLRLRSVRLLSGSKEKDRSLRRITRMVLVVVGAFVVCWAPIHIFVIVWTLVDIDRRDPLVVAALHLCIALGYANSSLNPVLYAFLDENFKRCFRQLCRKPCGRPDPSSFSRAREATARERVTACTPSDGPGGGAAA

The molecules below were run against Mu-type opioid receptor (Homo sapiens) + Delta-type opioid receptor (Homo sapiens) (UniProt P35372+P41143) (assay: inverse agonists of MOR-DOR heterodimerization, primary screen, cell-based, luminescence (AID 504357;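 further: 0% = cells with DMSO and 100% = wells without cells with DMSO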)). Conditions: cell-based MOR-DOR heterodimer luminescence, inverse agonism; at 9.3 µM; active compounds read high.

SMILES | inhibition
CN(C)c1ccc(C(=O)NCC2(N(C)C)CCCCC2)cc1 | inactive: -137%
CN(C)C1CCCC1OC(=O)C(O)(c1ccccc1)c1ccccc1 (stereo not given) | inactive: 5.77%
Cc1ccccc1C(=O)NCC1(N2CCCCC2)CCCCC1 | inactive: 12%
COc1ccc(C(=O)NCC2(N(C)C)CCCCC2)cc1 | inactive: -16.9%
O=C(NCC1(N2CCCCC2)CCCCC1)c1cccc(Br)c1 | inactive: 13.6%
CCN1CCCC(OC(=O)C2(O)c3ccccc3C=Cc3ccccc32)C1 (stereo not given) | inactive: 11%
Cc1cc(C(=O)NCC2(N3CCCCC3)CCCCC2)ccc1[N+](=O)[O-] | inactive: 8.57%
O=C(NCC1(N2CCCCC2)CCCCC1)c1cc(F)c(F)cc1Cl | inactive: 6.58%
C=CCN1CCN(CCOC(=O)C(O)(c2ccccc2)c2ccccc2)CC1 | inactive: -4.49%
CN1[C@@H]2CC[C@H]1CC(OC(=O)C(O)(c1ccccc1)c1ccccc1)C2 (stereo not given in full) | inactive: 9.74%
O=C(NCC1(N2CCCCC2)CCCCC1)c1cc([N+](=O)[O-])ccc1Cl | inactive: -3.32%
Cc1ccc(C(=O)NCC2(N3CCCCC3)CCCCC2)cc1 | inactive: -2.25%
COc1cc(SC)ccc1C(=O)NCC1(N(C)C)CCCCC1 | inactive: 6.71%
CCN(CC)CC(C)C(C)OC(=O)C(O)(c1ccccc1)c1ccccc1 (stereo not given) | inactive: -4.73%
CC(C)N1C(=O)CC2(CCN(CCOC(=O)C(O)(c3ccccc3)c3ccccc3)CC2)C1=O | inactive: -4.16%
O=C(OC1CN2CCC1CC2)C(CO)(c1ccccc1)c1ccccc1 (stereo not given) | inactive: 2.3%
O=C(OCCN1CCCC1)C(O)(c1ccccc1)c1ccccc1 | inactive: 5.78%
CC(C)Oc1ccc(C(=O)NCC2(N(C)C)CCCCC2)cc1 | inactive: -48.6%
CN(C)c1cccc(C(=O)NCC2(N(C)C)CCCCC2)c1 | inactive: -24.3%
COc1ccc(Br)c(C(=O)NCC2(N3CCCCC3)CCCCC2)c1 | inactive: 7.16%
COc1cc(C(=O)NCC2(N(C)C)CCCCC2)c([N+](=O)[O-])cc1OC | inactive: 4.67%
CN(C)C1(CNC(=O)c2ccc(Br)cc2)CCCCC1 | inactive: -158%
O=C(NCC1(N2CCCCC2)CCCCC1)c1cccc(Cl)c1 | inactive: -4.33%
COc1ccc(Cl)cc1C(=O)NCC1(N(C)C)CCCCC1 | inactive: 13.9%
COc1cccc(C(=O)NCC2(N3CCCCC3)CCCCC2)c1 | inactive: 8.9%
